# Molecular target: ERK2 enzyme (Homo sapiens (Human), UniProt P28482)
# Sequences of proteins named here, by UniProt entry; tags and fusion partners are left off.
# UniProt P28482, whole entry: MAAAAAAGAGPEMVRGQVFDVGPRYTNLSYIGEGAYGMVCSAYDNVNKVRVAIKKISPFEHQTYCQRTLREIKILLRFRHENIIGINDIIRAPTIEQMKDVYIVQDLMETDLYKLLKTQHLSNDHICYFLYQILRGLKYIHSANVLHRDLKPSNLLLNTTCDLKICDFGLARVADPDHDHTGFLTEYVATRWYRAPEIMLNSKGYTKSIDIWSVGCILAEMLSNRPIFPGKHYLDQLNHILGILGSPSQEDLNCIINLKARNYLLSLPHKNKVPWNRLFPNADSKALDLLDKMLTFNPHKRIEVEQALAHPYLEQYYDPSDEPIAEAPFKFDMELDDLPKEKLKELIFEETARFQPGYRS
# Test: Inhibition assay of ERK (Z'-LYTE kinase assay, Ser/Thr 3 peptide substrate)
# Settings: read-out: Erk2 IC50, In vitro, ERK2 enzyme 0.47 ng/μL, 100 μM ATP
compound,measurement,value
CC(c1ccccc1)c1cc2cc3c(-c4ccc(N5CCN(C)CC5)nc4)n[nH]c3cc2[nH]c1=O (stereo not shown),IC50,< 0.05 µM

# Source: patent US9624228B2, “Inhibitors of ERK and methods of use” (KURA ONCOLOGY, INC., priority 2013, dated 2017)
